For this assay, the target named is Amine oxidase [flavin-containing] A (Homo sapiens, UniProt P21397). As to the kind of experiment: Inhibition of recombinant human MAO-A expressed in baculovirus infected BTI insect cells preincubated for 10 mins followed by addition of kynuramine as substrate.

Protein sequences, listed by entry. Tags and fused reporters are not part of them.
UniProt P21397, whole entry: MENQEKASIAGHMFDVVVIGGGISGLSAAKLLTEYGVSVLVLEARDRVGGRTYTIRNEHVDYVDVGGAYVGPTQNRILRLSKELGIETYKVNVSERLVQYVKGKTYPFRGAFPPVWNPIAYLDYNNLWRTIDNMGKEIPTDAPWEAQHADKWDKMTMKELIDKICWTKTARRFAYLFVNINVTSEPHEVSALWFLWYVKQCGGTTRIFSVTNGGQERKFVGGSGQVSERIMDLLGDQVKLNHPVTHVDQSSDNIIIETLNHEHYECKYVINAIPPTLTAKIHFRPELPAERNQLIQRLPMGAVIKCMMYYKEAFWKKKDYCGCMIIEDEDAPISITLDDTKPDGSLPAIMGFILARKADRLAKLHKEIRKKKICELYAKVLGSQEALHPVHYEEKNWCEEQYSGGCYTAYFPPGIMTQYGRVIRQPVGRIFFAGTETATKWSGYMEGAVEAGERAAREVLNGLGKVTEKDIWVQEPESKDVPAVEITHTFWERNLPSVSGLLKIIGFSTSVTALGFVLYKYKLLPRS

The structures appear in SMILES notation.

What is called IC50 is the point on the concentration scale where inhibition reaches its midpoint.

For `C#CCN(C)Cc1ccccc1` [PARGYLINE], the IC50 was > 2000 nM.

Source of the values: ChEMBL document CHEMBL4431386, “Potent selective monoamine oxidase B inhibition by maackiain, a pterocarpan from the roots of Sophora flavescens” (Bioorg Med Chem Lett, 2016).
